Yeast UUG start = modulators of yeast start codon fidelity, primary screen, whole organism, S. cerevisiae, single point, plate reader; S. cerevisiae UUG-firefly luciferase reporter, luminescence/redox ratio; activity score, % at 18.7 µM; actives 0.13% (n = 350,000); AID 602363, 2012;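 active = replicate mean at a twofold rise or more, about +100% in these data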;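 also: firefly luciferase made from a UUG start codon reports start codon fidelity; reporter light over untreated wells divided by growth signal over untreated wells; some hits fall short of that in this replicate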
pCIP destab = p/CIP-EGFP fusion destabilizers, primary screen, fluorescence, F442A cells | Q05BA5 | 16 h | decrease of EGFP signal, % at 10 µM | 290,000 tested, 0.01% active | AID 1984, 2009;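 active = EGFP signal decrease of at least 30% at 10 µM or well 3 SD below plate mean, unless failing retest; inactive = the rest, including hits failing retest or dose response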
ABCB6 inh MLPCN = ABCB6 transporter inhibitors, primary screen, K562-ABCB6 cells, flow cytometry, MLPCN library; ATP-binding cassette sub-family B member 6 (Homo sapiens), Q9NP58; fluorescence ratio to DMSO, % at 10 µM; 360,000 tested, 0.19% active; K562-ABCB6 porphyrin accumulation, 1 h; active compounds read low;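 active = fluorescence ratio to DMSO below 75%, the collection mean minus 3 SD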;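 note: signal is porphyrin accumulated inside mitochondria; lower ratio means ABCB6 inhibition with less porphyrin fluorescence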
PKA-R2B activ = activators of PKA-R2B holoenzyme, primary screen, biochemical, fluorescence polarization, Cy5-IP20, human | cAMP-dependent protein kinase catalytic subunit beta (Homo sapiens) + cAMP-dependent … | PKA-R2B holoenzyme dissociation; R2B truncated from residue 108, S112A mutant; 0% DMSO only, 100% 113 µM cGMP | activation, % at 11.4 µM | 340,000 tested, 0.079% active | AID 504700, 2011;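 active = activation above a cutoff set at the mean over all compounds plus 3 SD, cut at about 18% in these data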;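 note: higher means more holoenzyme dissociation and a rise in polarization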
PKA-R1A activ = activators of PKA-R1A holoenzyme, primary screen, biochemical, fluorescence polarization, Cy5-IP20, bovine R1A, mouse PKAc; cAMP-dependent protein kinase type I-alpha regulatory subunit (Bos taurus) + …; PKA-R1A dissociation; scaled: DMSO 0%, 113 µM cGMP 100%; activation, % at 11.4 µM; 340,000 tested, 0.083% active;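 active = percent activation above the mean of all tested compounds plus 3 SD, cut at about 19% in these data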;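 note: higher means more PKAc released from R1A so a rise in polarization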
Granule exo inh = LAMP-1 surface exposure blockers, TALL-104 cells – cell-based, flow cytometry, MLPCN library, primary screen; inhibition, % at 10 µM; TALL-104 LAMP-1 surface exposure; cells stimulated with thapsigargin and PMA; 360,000 tested, 0.66% active;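 active = inhibition above about 55%, limit read from the data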
Exocytosis CP01 = inhibitors of lytic granule exocytosis, confirmation, TALL-104 cells, flow cytometry, Cherry Pick01. shares compounds with Granule exo inh. LAMP-1 externalization; stimulated with PMA plus thapsigargin. inhibition, % at 10 µM. 1,500 tested, 11% active. AID 651954, 2012; in the data active = inhibition above about 60%
A number is an active result; i = inactive; nt = no result. Hits are enriched below; roughly 0.94% of the tested compounds scored in any of these assays.

SMILES | Yeast UUG start | pCIP destab | ABCB6 inh MLPCN | PKA-R2B activ | PKA-R1A activ | Granule exo inh | Exocytosis CP01
CCOC(=O)c1csc(-c2ccc([N+](=O)[O-])cc2)n1 | nt | i | i | i | i | i | nt
CCOC(=O)c1cc(-c2cccc([N+](=O)[O-])c2)on1 | i | i | i | i | i | 66 | i
O=C(Nc1nc2ccc(SC(F)F)cc2s1)c1ccc(NS(=O)(=O)c2ccc(F)c(F)c2)cc1 | i | i | i | i | i | 76 | 104
CS(=O)(=O)c1ccc2nc(NC(=O)c3ccc(NS(=O)(=O)c4ccc(F)c(F)c4)cc3)sc2c1 | i | i | i | i | i | i | nt
O=C(NCC[C@@H]1CC[C@H](NC(=O)C2CC2)[C@H](CO)O1)c1cc(Cl)cc(Cl)c1 | i | nt | nt | nt | nt | nt | nt
Cc1ccc(CC(=O)N(C)CC(=O)Nc2ccc(N3CCOCC3)cc2)cc1C | i | nt | i | i | i | i | nt
Cc1ccc(NC(=O)CN(C)CC(=O)Nc2ccc(N3CCOCC3)cc2)cc1F | nt | i | i | i | i | 99 | i
N=c1c2c(ncn1Cc1ccco1)Oc1ccc3ccccc3c1C2c1ccccc1 (stereo not drawn) | nt | i | i | i | i | i | nt
N=c1c2c(-c3ccccc3)c(-c3ccccc3)n(Cc3ccco3)c2ncn1Cc1ccco1 | i | i | i | i | i | 91 | i
CCCCn1cnc2c(c(-c3ccccc3)c(-c3ccccc3)n2Cc2ccco2)c1=N | i | i | i | nt | nt | 64 | i
N=c1c2c(-c3ccccc3)c(-c3ccccc3)n(Cc3ccccc3)c2ncn1CCCn1ccnc1 | i | i | i | i | i | i | nt
CCCCn1c(N2CCC(Cc3ccccc3)CC2)nc2c1c(=O)[nH]c(=O)n2C | i | i | i | i | i | 88 | i
Cc1nnc(SCCn2c(N3CCC(Cc4ccccc4)CC3)nc3c2c(=O)[nH]c(=O)n3C)s1 | nt | i | nt | nt | nt | nt | nt
C=CCn1c(SCC(C)=O)nc2scc(-c3ccc(C)o3)c2c1=O | i | i | i | i | i | 85 | i
Cc1cc(Nc2c(C)n(C)n(-c3ccccc3)c2=O)n2c(nc3ccccc32)c1C#N | i | i | i | i | i | i | nt
CCc1c(C)c(C#N)c2nc3ccccc3n2c1Nc1c(C)n(C)n(-c2ccccc2)c1=O | i | i | i | i | i | 64 | i
CCOc1ccccc1CNC(c1ccccc1)c1ccccc1 | i | i | i | i | i | 59 | i
COc1ccccc1CNC(c1ccccc1)c1ccccc1 | i | i | i | i | i | i | nt
C[C@H]1CN([C@@H](C)CO)C(=O)c2cccc(NS(=O)(=O)c3cccs3)c2O[C@@H]1CN(C)CC1CC1 | i | nt | nt | nt | nt | nt | nt
CC(C)(C)C1CCC(OCC(O)CN2CCN(Cc3ccccc3)CC2)CC1 (stereo not drawn) | nt | i | i | i | i | 72 | i
CCCNC(=O)N[C@H]1CC[C@@H](CCn2cc(C3CCCC3)nn2)O[C@@H]1CO | i | nt | nt | nt | nt | nt | nt
OCCCNc1ncnc2oc(-c3ccccc3)c(-c3ccccc3)c12 | i | i | i | i | i | 66 | i
COc1ccc(-c2oc3ncnc(NCCCN4CCOCC4)c3c2-c2ccc(OC)cc2)cc1 | i | i | i | i | i | 63 | i
COc1ccc(NC(=O)N(C)C[C@H]2OCCCC[C@H](C)Oc3ccc(NC(=O)NC(C)C)cc3C(=O)N([C@@H](C)CO)C[C@@H]2C)cc1 | i | nt | nt | nt | nt | nt | nt
COc1ccc(OC)c(NC(=O)c2ccccc2N(C)S(=O)(=O)c2ccc(C)cc2)c1 | i | i | i | i | i | 61 | i
SMILES | Yeast UUG start | pCIP destab | ABCB6 inh MLPCN | PKA-R2B activ | PKA-R1A activ | Granule exo inh | Exocytosis CP01
Cc1nc(-c2ccc(Cl)cc2)sc1C1(C)CC(c2ccc(Cl)cc2)=NO1 (stereo not drawn) | i | nt | i | i | i | i | nt
Cc1nc(-c2ccc(Cl)cc2)sc1C1(C)CC(c2ccccc2)=NO1 (stereo not drawn) | i | nt | i | i | i | 83 | i
C[C@@H]1CN([C@H](C)CO)C(=O)Cc2cc(NS(=O)(=O)c3ccc(F)cc3)ccc2O[C@H]1CN(C)S(=O)(=O)c1cccs1 | i | nt | nt | nt | nt | nt | nt
CCc1nc2sc(C(C)=O)c(N)c2c2c1CCCC2 | i | i | i | nt | nt | 64 | i
CCc1nc2sc(C#N)c(N)c2c2c1CCCC2 | i | nt | i | i | i | i | nt
CCOC(=O)C1c2cccc(O)c2CCN1C(C)=O (stereo not drawn) | i | nt | i | i | i | 114 | i
CCOC(=O)C1CCN(C(=O)c2cccc(C(=O)N3CCC(C(=O)OCC)CC3)c2)CC1 | i | i | i | i | i | i | nt
CCOC(=O)C1CCN(C(c2ccccn2)c2c(C)[nH]c3ccccc23)CC1 (stereo not drawn) | i | i | i | i | i | i | nt
Cc1[nH]c2ccccc2c1C(c1ccccn1)N1CCC(C(N)=O)CC1 (stereo not drawn) | nt | i | i | i | i | 57 | i
O=C(NCc1ccccc1Cl)c1ccncc1 | i | i | i | i | i | 66 | i
CC(=O)Nc1cccc(NC(=O)Cc2cccs2)c1 | i | i | i | i | i | i | nt
O=C(Cc1cccs1)Nc1cccc(-c2nc3cc4ccccc4cc3[nH]2)c1 | nt | i | i | i | i | 66 | i
CCC(=O)N1[C@H](CO)[C@H](c2ccc(-c3ccc(F)cc3)cc2)[C@@H]1CN(C)C(C)=O | i | nt | nt | nt | nt | nt | nt
CCOc1ccc(-c2cnc(NCc3cccc4ccccc34)n2CCOC)cc1 | i | i | i | i | i | 111 | i
CC(C)n1nccc1N(Cc1ccc(Cl)cc1)S(=O)(=O)c1ccccc1 | i | i | i | i | i | 97 | i
CC(C)n1nccc1N(Cc1ccc(Br)cc1)S(=O)(=O)c1ccccc1 | i | i | i | i | i | 90 | i
C[C@@H]1CCCCO[C@H](CN(C)Cc2ccc3c(c2)OCO3)[C@@H](C)CN([C@H](C)CO)C(=O)c2cc(NS(=O)(=O)c3cccs3)ccc2O1 | i | nt | nt | nt | nt | nt | nt
COc1ccc(CNC(=O)C2CCCN(S(=O)(=O)c3ccc(Br)s3)C2)cc1 (stereo not drawn) | i | i | i | i | i | 69 | i
COc1ccc(Br)cc1CNC(=O)C1CCCN(S(=O)(=O)N2CC(C)CC(C)C2)C1 (stereo not drawn) | i | i | i | i | i | 70 | i
O=C(NCCc1ccc(Cl)cc1)C1CCN(S(=O)(=O)c2ccc(Br)s2)CC1 | nt | i | i | i | i | 65 | i

Bioassay records (PubChem)
